# Reference: patent US7655396B1, “Methods for detecting receptor modulator activity” (Allergan, Inc., priority 2006, dated 2010)
# Sequences of proteins named here, by UniProt entry; tags and fusion partners are left off.
# UniProt P30545, whole entry: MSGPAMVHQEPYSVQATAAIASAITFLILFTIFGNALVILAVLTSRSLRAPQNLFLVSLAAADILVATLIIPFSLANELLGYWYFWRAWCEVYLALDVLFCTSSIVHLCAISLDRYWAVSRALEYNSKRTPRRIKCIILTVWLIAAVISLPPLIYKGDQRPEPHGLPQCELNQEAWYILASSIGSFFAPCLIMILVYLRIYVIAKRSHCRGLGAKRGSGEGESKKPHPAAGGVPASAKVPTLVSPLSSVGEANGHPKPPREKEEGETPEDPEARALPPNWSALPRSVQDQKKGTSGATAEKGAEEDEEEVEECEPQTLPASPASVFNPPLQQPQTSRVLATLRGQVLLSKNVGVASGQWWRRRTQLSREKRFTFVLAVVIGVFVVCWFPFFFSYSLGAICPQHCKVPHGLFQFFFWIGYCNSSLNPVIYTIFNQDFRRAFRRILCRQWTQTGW
# Target: T1, mouse alpha 2B receptor (m α2B) (Mus musculus, UniProt P30545)
# T1 construct: expressed in transfected cells
# Assay: FLIPR calcium flux assay in HEK 293 m α2B/Gqi5 cells (Fluo-4 dye)
# Type: cell-based
# Details: FIG. 2, second experiment; 35° C.; 96 well
# From the text: This example describes the methodology used in assaying compounds for the ability to modulate the α2B receptor in a high throughput assay format in which the “readout” is the measurement of a change in intracellular calcium flux due to the use of the “promiscuous” Gqi5 hybrid G-protein, linking the α2B receptor (normally coupled to the adenylyl cyclase pathway) to the PLC pathway. Changes in intracellular calcium flux are monitored using a dye that becomes fluorescent when it binds free Ca^++ ion.
# HEK 293 cells are stably co-transfected with two plasmids, the first encoding the mouse alpha 2B receptor (m α2B), and the second encoding the hybrid Gqi5 protein. […] The nucleotide sequence encoding the human Gqi5 protein is contained in the reference Aiyar et al., Human AT1 receptor is a single copy gene: characterization in a stable cell line. Mol. Cell. […] These references are hereby all incorporated by reference herein. […]
# Each well of cells (in a 96 well microtiter dish) is assayed for activity in the FLIPR assay using the Fluo-4® calcium indicator dye to detect calcium flux. The structure of this dye, which can be purchased from Molecular Probes, Inc., is as follows:
# The cells are loaded with this dye using the manufacturer's recommendations, and washed 3× with FLIPR Buffer. Assays are conducted at room temperature (unless otherwise indicated in the following examples). […]
substance,measurement,value
norepinephrine,EC50,2 nM
